From patent EP1061897B1, “GLYCYLGLYCINE OLEAMIDE IN DERMO-COSMETOLOGY” (Pierre Fabre Dermo-Cosmetique, priority 1998, dated 1999)

Test system: élastase
Assay: in vitro acellular anti-elastase test, elastase diffusion in agarose gel containing orcein-stained insoluble elastin
Assay type: biochemical
Conditions: figure 2
Text: La méthode utilisée est une technique in vitro acellulaire, basée sur la diffusion d'élastase dans un gel d'agarose contenant de l'élastine insoluble colorée par l'orcéïne et dispersée dans le gel avec ou sans principe actif. La lecture du diamètre de lyse permet de calculer le pourcentage d'inhibition de l'enzyme par le principe actif.

Compound: CCCCCCCC/C=C\CCCCCCCC(=O)O [acide oléïque, acide oléique]
- activité anti-élastase (aire de lyse): celle-ci est apportée par l'acide oléïque
